# Yeast mating assay 2: variants of the scFv Ab-95

From the AlphaSeq antibody data of Engelhart et al. 2022 (doi:10.1038/s41597-022-01779-4), copy in the FLAb collection.

Binding partner: SARS-CoV-2 spike HR2 peptide, sequence PDVDLGDISGINAS.

The variants keep the heavy chain, the linker and the frameworks of Ab-95 (scFv order VH, a (GGGGS)3 linker, VL).
VH: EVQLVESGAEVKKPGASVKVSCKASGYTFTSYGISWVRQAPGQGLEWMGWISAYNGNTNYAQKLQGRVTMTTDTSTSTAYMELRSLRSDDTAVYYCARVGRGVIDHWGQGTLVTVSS
VL: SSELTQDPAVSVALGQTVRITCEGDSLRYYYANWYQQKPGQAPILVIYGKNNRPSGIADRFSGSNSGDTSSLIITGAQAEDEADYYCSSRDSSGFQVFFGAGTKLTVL

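Phage display of a naive human antibody library on the peptide gave the parent. Variants in AAYL52 differ from the parent at up to three CDR positions; double and triple changes were sampled at random. The scFvs were displayed on barcoded MATa yeast, the peptide on MATalpha yeast. Pairs that bind mate more often; barcode pairs of the diploids are counted by sequencing. Scores were corrected for input abundance and mapped to Kd with protein pairs of known affinity run in the same pool. Each pool was mated in three replicate cultures.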

Positions count from residue 1 of the parent VL; S26M puts M in place of S. This list gathers variants with a substitution at R28 (VL, numbered from residue 1). The read-out is the apparent dissociation constant on a log10 scale (nM): the lower, the stronger. The mean shown is taken over the replicates in which the pair was detected. "nd" marks a missing value. The strain was present, yet no cells mated with the target were sequenced in that replicate, which points to weak or no binding. Parent in this assay: reference entry 2.31, copy in this library 2.25. Empty control strains, which show no peptide, gave a signal in 28% of pairings with library AAYL52; the median was 3.91 and 95% of these signals were weaker than 2.90. No background was subtracted. The control count says in how many pairings with the empty strains this scFv gave a signal.

* S26M R28P N52D = nd, 3.34, 3.44 (mean 3.39; controls 2 of 9)
* R28S N52E R90C = nd, nd, nd (controls 1 of 9)
* R28Y N33P V97K = 4.01, nd, 3.99 (mean 4.00; controls 0 of 9)
* R28K Y31L S93D = 2.93, 2.90, 2.46 (mean 2.76; controls 4 of 9)
* R28V G49Q F95V = 4.21, nd, nd (controls 1 of 9)
* L27I R28Q P54C = 2.94, 4.02, 4.61 (mean 3.86; controls 6 of 9)
* R28D G94I = 3.68, 3.39, 3.44 (mean 3.50; controls 2 of 9)
* R28K A32C P54N = 3.04, 3.79, 2.62 (mean 3.15; controls 3 of 9)
* R28N Y31I G94A = 3.75, nd, 3.91 (mean 3.83; controls 0 of 9)
* R28Y R53P F98V = nd, nd, nd (controls 2 of 9)
* L27T R28G = 1.96, 1.86, 1.57 (mean 1.80; controls 3 of 9)
* R28W G49S Q96D = nd, nd, nd (controls 0 of 9)
* R28N S89E = nd, 2.46, 2.16 (mean 2.31; controls 1 of 9)
* L27H R28Y S92P = 4.11, 4.17, 4.22 (mean 4.17; controls 6 of 9)
* R28M N33H G49Q = nd, 4.60, nd (controls 3 of 9)
* L27W R28Y N51E = nd, nd, nd (controls 4 of 9)
* R28I S93E Q96M = 3.49, 3.39, 2.71 (mean 3.20; controls 3 of 9)
* R28I G49L = 4.03, nd, nd (controls 3 of 9)
* R28Y = 2.96, 3.38, nd (mean 3.17; controls 4 of 9)
* R28S Y30A Y31Q = 1.14, 1.20, 0.90 (mean 1.08; controls 5 of 9)
* R28E P54G V97Q = nd, nd, 2.89 (controls 3 of 9)
* R28I G49M N51Q = 4.23, nd, 4.19 (mean 4.21; controls 5 of 9)
* R28C A32N N33C = 5.18, nd, 4.36 (mean 4.77; controls 4 of 9)
* R28T Y29W R53E = 3.22, 3.62, 3.73 (mean 3.52; controls 4 of 9)
* R28L D91Y S92L = nd, nd, nd (controls 2 of 9)
* R28E Y29H N51D = 2.23, 1.70, 1.71 (mean 1.88; controls 5 of 9)
* R28E S92F = 3.07, 2.70, 3.04 (mean 2.94; controls 0 of 9)
* D25I R28S S55C = 5.66, 3.77, 2.45 (mean 3.96; controls 2 of 9)
* E23I R28Q Y31E = 1.65, 1.32, 1.25 (mean 1.40; controls 2 of 9)
* S26N R28C N52L = 4.19, nd, nd (controls 1 of 9)
* R28S Y30T A32G = 2.53, 2.82, 2.81 (mean 2.72; controls 4 of 9)
* R28D S92L F95E = 2.94, 3.09, 2.75 (mean 2.93; controls 6 of 9)
* R28D S55M Q96P = 4.74, 3.47, 3.35 (mean 3.86; controls 3 of 9)
* R28C R90Q F95K = nd, nd, nd (controls 0 of 9)
* R28G N33S G94A = 4.19, 3.13, nd (mean 3.66; controls 6 of 9)